# scFv variants of Ab-14 (light chain) against a SARS-CoV-2 spike peptide

From the AlphaSeq antibody data of Engelhart et al. 2022 (doi:10.1038/s41597-022-01779-4), copy in the FLAb collection.

Binding partner: SARS-CoV-2 spike HR2 peptide, sequence PDVDLGDISGINAS.

Ab-14 is the parent antibody, in scFv form: VH, then the linker GGGGSGGGGSGGGGS, then VL. The heavy chain is unchanged in all variants.
VH: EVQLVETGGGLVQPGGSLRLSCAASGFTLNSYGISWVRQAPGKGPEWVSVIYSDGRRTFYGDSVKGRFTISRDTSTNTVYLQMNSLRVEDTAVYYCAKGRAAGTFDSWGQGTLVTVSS
VL: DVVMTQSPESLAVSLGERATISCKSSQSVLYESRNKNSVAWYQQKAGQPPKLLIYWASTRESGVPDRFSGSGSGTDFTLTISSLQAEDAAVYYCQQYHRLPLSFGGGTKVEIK

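The parent was found by panning a naive human phage display library on the peptide. In library AAYL50, one, two or three CDR residues were substituted; doubles and triples were drawn at random. In AlphaSeq, yeast of one mating type display the scFv and yeast of the other type display the target. Binding brings cells together so that they mate, and sequencing counts the barcode pairs among the diploids. A regression on co-assayed BCL2-family reference pairs converts the normalised counts of each replicate to an apparent Kd. Mating was done three times.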

Variants are written as CDR1, CDR2 and CDR3 of the light chain (limits as in the source). Parent: KSSQSVLYESRNKNSVA, WASTRES, QQYHRLPLS.
Scale: log10 of Kd in nM, estimated from mating counts; low values are strong binders.
"nd" marks a missing value. The strain was present, yet no cells mated with the target were sequenced in that replicate, which points to weak or no binding.
In this assay the parent's reference entry averaged 0.65; its copy inside this library read 1.68.

CDR-L1	CDR-L2	CDR-L3	replicates, log10 nM	control signals
KSSQSVLYESRNKNSVR	WASTRES	QQTLRLPLS	nd / nd / nd	0 of 9
KKSQSVLCESRNKNSVA	WASTRES	EQYHRLPLS	nd / nd / 2.67	2 of 9 (3.10)
KSSQSVLRERRNKNSVA	TASTRES	QQYHRLPLS	4.90 / 3.74 / nd	5 of 9 (4.23)
KSSFSVLYESRNKNMVI	WASTRES	QQYHRLPLS	nd / nd / 5.52	1 of 9 (5.06)
KSSQTVLYESRNKNSVA	WASTIES	QQYHRLQLS	nd / nd / nd	1 of 9 (2.42)
KSSQSSLYESRNKSSVA	WASTRES	QQYNRLPLS	1.47 / 1.69 / 1.77	4 of 9 (4.16)
DSSQSVLYESRNKNSVA	WESTREQ	QQYHRLPLS	1.05 / 1.02 / 1.19	2 of 9 (3.87)
KSSQSVLYESRNKNSVA	WTVTRES	QQYIRLPLS	3.26 / 3.50 / 3.32	4 of 9 (3.32)
KSSQSVLYRSRNKNSVA	WASTRES	QQYHRLPLP	1.48 / 1.63 / 1.60	2 of 9 (3.20)
KPSQSVLYESRNKVSVA	WASTRTS	QQYHRLPLS	4.78 / nd / 4.63	3 of 9 (4.18)
KSSQSVLYESRNKGSVA	WASTRES	QQYHRCPLC	nd / 4.64 / nd	1 of 9 (3.44)
KSSQSVLYESRNKNAVA	WASTRES	QPYERLPLS	2.71 / 2.03 / 2.22	1 of 9 (4.06)
KSSQSQLYESRNKNSVA	WALTRES	QQYHRLRLS	3.99 / 2.82 / 3.04	4 of 9 (4.05)
KSSQSVLYESRNKNQVA	WASTRES	QQRRRLPLS	nd / 4.93 / nd	2 of 9 (4.33)
KSSQSFDYESRNKKSVA	WASTRES	QQYHRLPLS	1.05 / 1.24 / 1.26	2 of 9 (4.30)
KSSQSVLYESRNKNSVI	WASTRES	QQYKLLPLS	nd / nd / nd	2 of 9 (3.56)
KSSQSVLYESRNEPSVA	WASTRES	PQYHRLPLS	nd / nd / nd	0 of 9
KSSQSVLYESRNKNSVA	WASTRES	QWYHCLPLS	1.02 / 1.38 / 1.30	3 of 9 (4.54)
ESSQSVLYESRNKFSVA	WASTREH	QQYHRLPLS	nd / nd / 3.82	1 of 9 (4.52)
KSSQSVLYESRNKNSCA	WDSTRLS	QQYHRLPLS	3.91 / nd / 3.67	1 of 9 (4.66)
KSSQSVLYESGNKNSVA	EASTREF	QQYHRLPLS	0.87 / 0.94 / 0.96	3 of 9 (4.85)
KSSQSVIYESRNKNSVA	WASTRES	QQYHRLPLS	1.20 / 1.39 / 1.29	7 of 9 (4.49)
KSSQSVLYECRNKNSVA	WSSTRES	QQYHRGPLS	5.74 / nd / nd	3 of 9 (4.12)
KSSQRVLYESKNKNSVA	WASTRES	QQYHRRPLS	1.85 / 1.62 / 1.56	2 of 9 (3.64)
KSSQSVLYESENKNSVA	WALTRES	QNYHRLPLS	nd / nd / nd	1 of 9 (4.23)
VSDQSVLYESRNKNSVA	WASARES	QQYHRLPLS	3.07 / 2.51 / 3.70	0 of 9
KSAQSVLYESRNKNSVL	WASTRES	QQYIRLPLS	nd / 4.44 / 4.78	3 of 9 (4.26)
KSSYSVLYESSNKNSVA	WASTRES	CQYHRLPLS	4.28 / 2.66 / 3.41	1 of 9 (4.44)
KSSQSVLYEERNKNSVA	WASTRYS	QQYHRLPLT	2.36 / 1.95 / 2.09	1 of 9 (4.54)
KSSQSVIYESRNKNSVA	WASTRES	QQRHRLPLC	0.95 / 1.11 / 0.97	0 of 9
KSSQSVLYESRNKNSGA	WASMRES	QQYHRLPLS	nd / nd / nd	1 of 9 (5.41)
KSSQSVLNESPNKNSVA	IASTRES	QQYHRLPLS	3.10 / 2.04 / 2.82	1 of 9 (4.19)
KSSQSVLYESRNKNSVA	WASTRES	NAYHRLWLS	2.56 / 2.53 / 2.34	3 of 9 (4.97)
KSSQSVLYESCNKLSVA	WASTRES	QQYHKLPLS	4.10 / 2.91 / 2.31	0 of 9
KSSQSVLYESRNLNSVA	WASTQES	QQYHRLPLS	0.98 / 1.15 / 1.20	4 of 9 (4.70)
KSSQSVLCESGNKNSVA	WNSTRES	QQYHRLPLS	2.32 / 2.28 / 2.85	3 of 9 (4.59)
KSSQSVLYESRKKNSVD	WASTRES	QQYHRLPLS	nd / 4.01 / nd	2 of 9 (5.23)
KSSQSVLYESLNCNSVA	WASTRES	QQYHRLPLS	0.77 / 1.00 / 1.00	0 of 9
YSSQSVLYESRNKNSVA	WASTRES	QGVHRLPLS	1.20 / 1.34 / 1.52	6 of 9 (4.78)
KSSQSVNYYSINKNSVA	WASTRES	QQYHRLPLS	nd / nd / nd	0 of 9
KFSQSVLYESRNKNYVG	WASTRES	QQYHRLPLS	5.22 / nd / nd	0 of 9
KSSQSVLYESRKKNSVA	WASTREQ	SQYHRLPLS	0.59 / 0.81 / 1.29	0 of 9
KVSQSVLNESRNKNSVA	WASTRES	QQYHRLPFS	0.40 / 0.59 / 0.50	1 of 9 (3.99)
KSSQTVLYESRNKNDVA	WASTCES	QQYHRLPLS	6.32 / 4.10 / 4.41	3 of 9 (3.81)
MQSQSVLYESRNKNIVA	WASTRES	QQYHRLPLS	nd / nd / nd	0 of 9
KSSQSKLYESRNKNSVA	WASQRRS	QQYHRLPLS	1.65 / 1.43 / 1.54	0 of 9
KSSQSVLYESRNTNSVA	WASRRES	QQYHRLPVS	1.41 / 1.59 / 1.58	1 of 9 (3.73)
KSSQSVLYESRNKNIVA	KASTRES	QQYHRLPIS	nd / 3.07 / 4.39	1 of 9 (3.30)
KSSQSVLYESRNKNEVA	WASTRES	QQYHRLPLV	3.31 / 3.00 / 3.33	6 of 9 (4.12)
KSSQSVGYESRNLNSVA	WASTRES	MQYHRLPLS	4.70 / nd / 3.92	4 of 9 (4.33)

For reference, 6 entries of the list once more:

CDR-L1	CDR-L2	CDR-L3	replicates, log10 nM	control signals
KSSQSVLYESENKNSVA	WALTRES	QNYHRLPLS	nd / nd / nd	1 of 9 (4.23)
KSSQSVLYESRNKNAVA	WASTRES	QPYERLPLS	2.71 / 2.03 / 2.22	1 of 9 (4.06)
KSSQSVLYESGNKNSVA	EASTREF	QQYHRLPLS	0.87 / 0.94 / 0.96	3 of 9 (4.85)
KSSQSVLYESRNKNEVA	WASTRES	QQYHRLPLV	3.31 / 3.00 / 3.33	6 of 9 (4.12)
KSSQSFDYESRNKKSVA	WASTRES	QQYHRLPLS	1.05 / 1.24 / 1.26	2 of 9 (4.30)
KSSYSVLYESSNKNSVA	WASTRES	CQYHRLPLS	4.28 / 2.66 / 3.41	1 of 9 (4.44)

As a blank, each scFv also met three strains without target: over library AAYL50, 18% of these pairings were detected, typically at 4.19 and seldom below 2.99. Also given: how often the same scFv was detected with the empty control strains, with their mean in brackets.